Experiments:
[1] = tested on: T. b. brucei BSF; test: Drug sensitivity assay, T. b. brucei bloodstream forms; format: cell-based; details: KRS1 OE
[2] = biological target: CYP3A4 (Homo sapiens, UniProt P08684); test: In vitro CYP inhibition, 3A4; format: in vitro ADME
Procedure: (§1) Compounds were screened for CYP inhibition activity using the protocol established by TCG Lifesciences (India). The activity of five CYP450 isoforms: 1A2; 2C9; 2D6, 3A4; and 2C19 was monitored in the presence of test or control (miconazole) compounds at 10 µM. Reactions were terminated after 10 min (30 min for CYP2C19) by the addition of acetonitrile, centrifuged and analysed via LC-MS/MS. […]

Chains of the proteins cited; added tags and fusions are not shown.
UniProt P08684, whole entry: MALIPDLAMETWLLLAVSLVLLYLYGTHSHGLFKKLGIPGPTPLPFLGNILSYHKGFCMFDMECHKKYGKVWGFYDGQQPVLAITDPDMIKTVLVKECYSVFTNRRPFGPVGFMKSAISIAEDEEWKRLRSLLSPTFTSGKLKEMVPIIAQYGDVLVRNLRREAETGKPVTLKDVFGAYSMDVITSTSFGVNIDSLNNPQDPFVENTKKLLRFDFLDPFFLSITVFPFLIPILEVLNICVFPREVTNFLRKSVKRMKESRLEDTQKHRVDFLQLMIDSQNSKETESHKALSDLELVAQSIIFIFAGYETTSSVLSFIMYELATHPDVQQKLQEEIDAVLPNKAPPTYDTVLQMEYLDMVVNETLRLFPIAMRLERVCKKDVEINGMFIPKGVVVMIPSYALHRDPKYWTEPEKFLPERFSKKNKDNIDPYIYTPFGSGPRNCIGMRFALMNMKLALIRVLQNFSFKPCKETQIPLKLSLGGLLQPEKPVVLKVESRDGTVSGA
UniProt P10635, whole entry: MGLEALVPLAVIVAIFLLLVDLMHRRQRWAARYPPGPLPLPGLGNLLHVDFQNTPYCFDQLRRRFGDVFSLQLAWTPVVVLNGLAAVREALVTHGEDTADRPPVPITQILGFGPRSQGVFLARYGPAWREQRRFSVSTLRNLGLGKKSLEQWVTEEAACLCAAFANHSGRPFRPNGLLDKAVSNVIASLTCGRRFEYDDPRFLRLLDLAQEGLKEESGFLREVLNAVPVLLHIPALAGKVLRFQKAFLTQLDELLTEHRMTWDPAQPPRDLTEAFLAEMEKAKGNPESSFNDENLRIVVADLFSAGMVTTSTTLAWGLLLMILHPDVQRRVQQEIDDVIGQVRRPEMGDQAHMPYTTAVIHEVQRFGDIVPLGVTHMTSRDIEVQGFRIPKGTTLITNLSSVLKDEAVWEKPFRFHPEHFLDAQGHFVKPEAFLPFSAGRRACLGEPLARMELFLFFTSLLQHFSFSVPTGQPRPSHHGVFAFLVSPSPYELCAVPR

[3] = tested on: T. cruzi (Sylvio X10/7A1 strain) epimastigote; format: cell-based; details: KRS1 OE
[4] = tested on: T. cruzi (Sylvio X10/7A1 strain) intracellular amastigote (in Vero cells); format: cell-based; details: KRS1 OE
[5] = tested on: Lysyl-tRNA synthetase 1 (KRS1); test: Isothermal proteome profiling (iTPP), TcKRS1; format: binding, T. cruzi; details: KRS1 (C4B63_45g239); lysate, compound at 10× EC50, 48°C
Procedure: (§2) T. cruzi epimastigote lysates were generated as previously described ([29]). Isothermal TPP assays were performed as previously described ([25]). […] Data processing and analyses were performed as previously described ([25]), except proteins were identified via searches against the T. cruzi Dm28C proteome (tritrypdb.org, version 49).

[6] = tested on: L. donovani (LdBOB) promastigote; test: Drug sensitivity assay, L. donovani promastigotes; format: cell-based; details: KRS1 OE
[7] = biological target: CYP2D6 (Homo sapiens, UniProt P10635); test: In vitro CYP inhibition, 2D6; format: in vitro ADME
Procedure: as §1

[8] = tested on: T. cruzi epimastigote lysates; test: Isothermal proteome profiling (iTPP), other hit proteins; format: binding; details: 10× EC50, 48°C
Procedure: as §2

[9] = Conserved hypothetical protein (C4B63_49g169)
[10] = Small nuclear ribonucleoprotein Sm-E (C4B63_42g593)

SMILES: Cc1nc(N)c2c(F)c(F)c(NC3CCCC3)c(F)c2n1 [DMU371, N7-Cyclopentyl-5,6,8-trifluoro-2-methylquinazoline-4,7-diamine]
- Fold-shift (relative to WT) [1]: 7 fold
- inhibition at 10 min, 10 µM [2]: 13 ± 3%
- Fold-shift (relative to WT) [3]: 10 fold
- Fold-shift (relative to WT) [4]: 4 fold
- Abundance Log2 fold change Rep 1 [5]: 2.50
- Abundance Log2 fold change Rep 2 [5]: 2.97
- Fold-shift (relative to WT) [6]: 4 fold
- inhibition at 10 min, 10 µM [7]: 6.3 ± 0.1%
- Abundance Log2 fold change Rep 1 [8, 9]: 2.05
- Abundance Log2 fold change Rep 2 [8, 9]: 1.61
- Abundance Log2 fold change Rep 1 [8, 10]: 3.04
- Abundance Log2 fold change Rep 2 [8, 10]: 1.56
